Reference: PMC7830743 (Journal of medicinal chemistry, 2020)

Target: LDHA (Homo sapiens, UniProt P00338)
Test: SPR binding assay

Compound	residence time
NS(=O)(=O)c1ccc(Cc2c(-c3ccc(F)c(C#CCC4CCCC4)c3)nn(-c3nc(C(=O)O)cs3)c2CC2CC2)cc1F [Compound 38, 2-(3-(3-(3-Cyclopentylprop-1-yn-1-yl)-4-fluorophenyl)-5-(cyclo-propylmethyl)-4-(3-fluoro-4-sulfamoylbenzyl)-1H-pyrazol-1-yl)-thiazole-4-carboxylic Acid]	> 16600 min
NS(=O)(=O)c1ccc(Cc2c(-c3ccc(F)c(C#CC4CCCC4)c3)nn(-c3nc(C(=O)O)cs3)c2CC2CC2)cc1F [Compound 23, 2-(3-(3-(Cyclopentylethynyl)-4-fluorophenyl)-5-(cyclopropylmethyl)-4-(3-fluoro-4-sulfamoylbenzyl)-1H-pyrazol-1-yl)thiazole-4-carboxylic Acid]	> 16600 min
